These results are taken from patent US20090070901.

This data set concerns the target human carbonic anhydrase II (HCAII)-pea Rubisco LSMT conjugate (glutaraldehyde cross-linked) (UniProt Q43088).

Regarding “des(methyl) spinach Rubisco (ribulose-1,5-bisphosphate carboxylase-oxygenase holoenzyme)”, the “Km (CO2) of Rubisco carboxylation” value is given as “decrease in the Km (CO2) from 13.4 µM to 3.44 µM”.
